The record followed here is publication PMC10787068, “Targeting the Mitochondrial Chaperone TRAP1 Alleviates Vascular Pathologies in Ischemic Retinopathy” (Advanced Science, 2023).

The test system of this assay is cytoplasmic Hsp90. Nature of the assay: Cytoplasmic Hsp90 inhibition in MIO-M1 cells (western blotting). To be noted: 6 hr. Type of assay: cell-based, human. Background: Immunoblotting shows a protein as a band on a membrane.

Each structure is given as a SMILES string.

In the case of `CO[C@H]1/C=C\C=C(/C)C(=O)NC2=CC(=O)C(NCCN(C)C)=C(C[C@@H](C)C[C@H](OC)[C@H](O)[C@@H](C)/C=C(\C)[C@@H]1OC(N)=O)C2=O` [DMAG, 17‐Dimethyl‐aminothylamino‐17‐demethoxy‐geldanamycin], the “Hsp90 client protein checkpoint kinase 1 (Chk1) level” value is given as “downregulated”.
